Our source for the Ki values is EP1200406B1, “CYCLIC AMIDES AND IMIDES HAVING SELECTIVE ANTAGONIST ACTIVITY AT ALPHA-1D ADRENERGIC RECEPTOR” (RECORDATI INDUSTRIA CHIMICA E FARMACEUTICA S.p.a., priority 1999, dated 2001).

By UniProt entry, the sequences of proteins in these tests, tags left out.
UniProt P25100, whole entry: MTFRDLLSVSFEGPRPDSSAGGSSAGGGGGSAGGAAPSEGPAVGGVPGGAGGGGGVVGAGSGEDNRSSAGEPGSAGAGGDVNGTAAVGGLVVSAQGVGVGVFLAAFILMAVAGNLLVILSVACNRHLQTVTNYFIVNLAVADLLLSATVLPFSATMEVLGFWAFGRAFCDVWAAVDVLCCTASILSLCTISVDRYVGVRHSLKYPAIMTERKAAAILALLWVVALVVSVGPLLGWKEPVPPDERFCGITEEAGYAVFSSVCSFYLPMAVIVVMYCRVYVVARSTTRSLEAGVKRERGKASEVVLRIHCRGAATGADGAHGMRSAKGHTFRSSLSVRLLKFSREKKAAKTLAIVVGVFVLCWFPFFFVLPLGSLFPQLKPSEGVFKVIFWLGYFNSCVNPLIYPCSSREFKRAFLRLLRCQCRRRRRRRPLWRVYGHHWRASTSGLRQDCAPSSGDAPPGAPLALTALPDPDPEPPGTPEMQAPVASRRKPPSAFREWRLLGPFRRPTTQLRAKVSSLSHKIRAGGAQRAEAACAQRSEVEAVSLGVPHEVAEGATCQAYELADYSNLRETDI

pKi: −log10 of the molar value.

Experiment [1] has as its target T1, human recombinant α1a adrenoceptor (Homo sapiens, UniProt P35348).
T1 construct: expressed in transfected cells; host or cells: CHO cells (membranes)
T1 sequence (P35348 1-466): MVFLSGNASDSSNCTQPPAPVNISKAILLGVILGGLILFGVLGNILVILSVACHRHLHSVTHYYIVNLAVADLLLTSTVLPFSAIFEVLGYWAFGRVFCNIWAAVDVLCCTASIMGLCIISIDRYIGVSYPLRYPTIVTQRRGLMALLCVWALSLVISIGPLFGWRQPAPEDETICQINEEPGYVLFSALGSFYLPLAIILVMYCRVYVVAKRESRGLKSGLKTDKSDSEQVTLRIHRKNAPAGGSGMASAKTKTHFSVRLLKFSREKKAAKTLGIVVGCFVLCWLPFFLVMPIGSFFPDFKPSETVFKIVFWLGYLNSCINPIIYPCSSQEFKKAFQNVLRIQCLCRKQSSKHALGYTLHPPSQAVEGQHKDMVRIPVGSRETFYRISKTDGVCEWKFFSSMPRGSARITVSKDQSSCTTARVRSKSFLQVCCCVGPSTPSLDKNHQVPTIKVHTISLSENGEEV
Description: Radioligand binding ([3H]prazosin) on membranes of CHO cells expressing cloned α1a adrenoceptor. Particulars: human cloned receptor, CHO cell membranes, 0.2 nM [3H]prazosin; read-out: Affinity (Ki) α1a. As for the experimental part: (§1) The determination of affinity for cloned subtypes of human α1 adrenergic receptors was performed in membranes from CHO cells (chinese hamster ovary cells) transfected by electroporation with DNA expressing the genes encoding each α1-adrenoceptor subtype, namely α1a, α1b and α1d.. Cloning and stable expression of the human α1-adrenoceptor gene were performed as previously described (Testa et al., Pharmacol. Comm. 6, 79-86 (1995)). CHO cell membranes were incubated in […] Tris pH 7.4 with 0.2 nM [^3H]prazosin, in a final volume of 1.02 ml for 30 minutes at 25°C, in the absence or presence of competing drugs (1 pM-10 µM). Non-specific binding was determined in the presence of 10 µM phentolamine. Incubation was stopped by addition of ice-cold Tris buffer and rapid filtration through 0.2% polyethyleneimine pretreated Schleicher & Schuell GF52 filters. […] The HeLa cells were grown as monolayers in Dulbecco's modified Eagle's medium (DMEM), supplemented with 10% foetal calf serum and gentamicin (100 µg/ml), 5% CO2, at 37°C. […] The inhibition of specific binding of the radioligands by the drugs was analysed to estimate the IC50 value by using the non-linear curve-fitting programme Allfit (De Lean et al., Am. J. Physiol. 235, E97-E102 (1978)). […] Data were expressed as mean of Ki.

Experiment [2] has as its target T2, human recombinant α1d adrenoceptor (Homo sapiens, UniProt P25100).
T2 construct: expressed in transfected cells; host or cells: CHO cells (membranes)
Description: Radioligand binding ([3H]prazosin) on membranes of CHO cells expressing cloned α1d adrenoceptor. Conditions: human cloned receptor, CHO cell membranes, 0.2 nM [3H]prazosin; read-out: Affinity (Ki) α1d. As to the method: as §1

Take `O=C1CC2(CCCC2)CC(=O)N1CCN1CCN(c2cc(Cl)ccc2Cl)CC1` [Example 1, 8-{2-[4-(2,5-Dichlorophenyl)-1-piperazinyl]-ethyl}-8-azaspiro[4.5]decane-7,9-dione]: the pKi (commonly the Ki on a negative log10 scale, so that one unit is a factor of ten) in experiment [1] was 6.89.
As to `Cc1ccc(Cl)c(N2CCN(CCN3C(=O)CC4(CCCC4)CC3=O)CC2)c1` [Example 3, 8-{2-[4-(2-Chloro-5-methylphenyl)-1-pirerazinyl]-ethyl}-8-azaspiro[4.5]decane-7,9-dione], the pKi in experiment [2] was 8.54.
On to `O=C1CCC(=O)N1CCN1CCN(c2cc(Cl)ccc2Cl)CC1` [Example 12, 1-{2-[4-(2,5-Dichlorophenyl)-1-piperazinyl]-ethyl}-pyrrolidine-2,5-dione], for which the pKi in experiment [1] is 7.04.
